Tested on: cardiac MIFIs (HUES9-CMs with 10% FBs)
Assay: side-on contractility assay of cardiac MIFIs with drug dosing (twitch force, beat frequency)
Assay type: cell-based, human
Details: epinephrine, second of two values; dose not given
Procedure: MIFIs were removed from wells using forceps and were transferred to a 35 mm petri dish filled with 37° C. Tyrode's solution (1.192 g HEPES, 0.203 g MgCl2, 0.403 g KCl, 7.889 g NaCl, 0.04 g NaH2PO4, 0.901 g C6H12O6, and 0.265 g CaCl2) per liter of distilled water, pH 7.4). MIFIs were anchored by placing the wide base of the strip into a slit in a PDMS block glued to the bottom of the stimulation dish. The Tyrode's bath was maintained between 30° and 37° C. using a heated stage regulated by an in house Lab VIEW program. Videos of samples were taken using a NikonTM […] DSLR camera mounted on a NikonTM SMZ1500 stereomicroscope. Samples were paced from 2-10 Hz using parallel platinum electrodes placed 2 cm apart and immersed in Tyrode's solution. Samples were stimulated with 40V using a 10 ms square pulse wave. Shorter pulse durations can also be used (e.g., 2 ms, 4 ms, 6 ms, etc.). Carbachol and isoprenaline were mixed to stock concentrations of 5 mM in 1× Tyrode's solution. […] By tracking the change in tissue length of beating MIFIs, we calculated force generated by these tissues using force lookup tables. […] It is possible that this decrease in contractility at Day 10 was a result of remodeling in these tissues around Day 10, something that was reflected in the fluorescence staining. […]

CNC[C@H](O)c1ccc(O)c(O)c1 [epinephrine]
beat frequency relative to initial BPM: 1.65 ×
